Experimental data: patent US20070105790A1, “Pancreatic cancer treatment using Na+/K+ ATPase inhibitors” (Bionaut Pharmaceuticals, Inc., priority 2004, published 2007)

Legend:
[1] = steady state delivery in mice
[2] = amount to normalize tachycardia/fibrillation; cited from earlier work
Na+/K+-ATPase = biological target: T1, Na+/K+-ATPase (Canis lupus familiaris, UniProt P50997); test: Na+/K+-ATPase inhibition, enzyme preparation from dog kidney; assay type: biochemical
T1 construct: enzyme preparation from dog kidney (Sigma); purchased Sigma; host or cells: dog kidney tissue preparation
Description: Anti-prolerafitive IC50 values were determined by MTS assay using an A549 cell line. Na^+/K^+-ATPase inhibition IC50 values were obtained using enzyme preparation from dog kidney (Sigma).

Structure (SMILES): C[C@@H]1OC(OC2C=C3CCC4C(CC[C@]5(C)[C@@H](c6ccc(=O)oc6)CC[C@]45O)[C@@]3(C)CC2)[C@H](O)[C@H](O)[C@H]1O (stereo partly drawn) [BNC-4, proscillaridin]
- therapeutic serum concentration required to achieve >60% TGI [1]: about 48+23 ng/ml
- optimal therapeutic level (EDp.o.) [2]: ~5 mg
- potency relative to BNC-151 (Na+/K+-ATPase): about 10 times
